Laboratory results reported in ChEMBL document CHEMBL6153172, “MALT1 Inhibitors and Degraders: Strategies for NF-κB-Driven Malignancies” (J Med Chem, 2025).

Biological target: T1, Mucosa-associated lymphoid tissue lymphoma translocation protein 1 (Homo sapiens, UniProt Q9UDY8)
T1 sequence (Q9UDY8 whole entry): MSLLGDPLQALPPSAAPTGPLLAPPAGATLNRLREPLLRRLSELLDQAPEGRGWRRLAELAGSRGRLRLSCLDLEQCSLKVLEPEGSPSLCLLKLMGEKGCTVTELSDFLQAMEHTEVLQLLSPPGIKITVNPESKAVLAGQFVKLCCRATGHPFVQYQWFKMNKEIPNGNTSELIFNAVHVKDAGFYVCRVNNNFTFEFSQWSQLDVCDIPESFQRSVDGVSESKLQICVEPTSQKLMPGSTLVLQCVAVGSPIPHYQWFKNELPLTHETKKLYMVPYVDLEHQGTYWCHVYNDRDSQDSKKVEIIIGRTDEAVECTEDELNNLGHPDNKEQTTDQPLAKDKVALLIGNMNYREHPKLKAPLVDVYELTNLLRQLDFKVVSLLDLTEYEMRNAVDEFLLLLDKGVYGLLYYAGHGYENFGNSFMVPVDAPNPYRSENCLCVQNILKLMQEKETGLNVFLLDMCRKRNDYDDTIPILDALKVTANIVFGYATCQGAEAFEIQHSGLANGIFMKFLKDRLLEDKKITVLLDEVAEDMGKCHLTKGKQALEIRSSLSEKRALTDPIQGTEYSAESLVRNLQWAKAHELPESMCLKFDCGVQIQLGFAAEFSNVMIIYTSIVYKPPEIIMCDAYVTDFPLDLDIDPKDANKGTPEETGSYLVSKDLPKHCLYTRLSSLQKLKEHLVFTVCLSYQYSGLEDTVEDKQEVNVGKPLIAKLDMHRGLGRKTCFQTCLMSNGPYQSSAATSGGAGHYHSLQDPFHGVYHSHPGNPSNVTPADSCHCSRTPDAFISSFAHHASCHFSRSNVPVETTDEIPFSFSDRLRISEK
Experiment: biochemical

## CO[C@@H](C)[C@@H](OC)c1c(NC(=O)Nc2cnc(-n3nccn3)c(Cl)c2)cnc2cc(Cl)nn12
  IC50: 5 nM
